# The list shows a part of the results, in another mix than the full data. Some results for these compounds are left out of this collection, so the calls shown say nothing about other tests. Calls of active or inactive are those of the source.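 How the source made its calls: active means percent inhibition above a cutoff equal to the mean of all tested compounds plus 3 SD (cut at about 15% in these data); inactive means the rest.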
# Protein sequences, listed by entry. Tags and fused reporters are not part of them.
# UniProt Q9UM07, whole entry: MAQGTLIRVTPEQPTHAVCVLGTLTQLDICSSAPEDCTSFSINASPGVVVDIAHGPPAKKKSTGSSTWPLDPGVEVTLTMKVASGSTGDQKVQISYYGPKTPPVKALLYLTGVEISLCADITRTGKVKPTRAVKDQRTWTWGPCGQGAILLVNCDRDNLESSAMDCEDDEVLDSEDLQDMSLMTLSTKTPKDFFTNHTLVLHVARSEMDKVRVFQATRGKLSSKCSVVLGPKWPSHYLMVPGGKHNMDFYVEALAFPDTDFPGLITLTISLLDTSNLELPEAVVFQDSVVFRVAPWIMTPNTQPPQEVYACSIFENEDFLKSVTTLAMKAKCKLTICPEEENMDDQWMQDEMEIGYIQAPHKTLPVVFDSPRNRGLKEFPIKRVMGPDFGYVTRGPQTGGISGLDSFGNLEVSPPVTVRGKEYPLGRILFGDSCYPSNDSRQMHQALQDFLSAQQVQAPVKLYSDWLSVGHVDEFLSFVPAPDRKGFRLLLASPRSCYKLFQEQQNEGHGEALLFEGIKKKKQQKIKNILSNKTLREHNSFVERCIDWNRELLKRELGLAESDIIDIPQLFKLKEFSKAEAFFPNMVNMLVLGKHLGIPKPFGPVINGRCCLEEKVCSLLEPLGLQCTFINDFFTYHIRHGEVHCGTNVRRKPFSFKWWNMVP
# Molecular target: Protein-arginine deiminase type-4 (Homo sapiens) (UniProt Q9UM07)
# Assay: human PAD4 inhibitors, primary screen, biochemical, fluorescence polarization, 1536-well format (AID 485272);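 further: 0% = PAD4 with RCA probe and DMSO and 100% = probe without PAD4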
# Conditions: recombinant PAD4, RCA probe fluorescence polarization; at 6.36 µM; stronger effect = higher value
row,SMILES,inhibition
1,COc1cccc(C(=O)NCC2(N3CCCCC3)CCCCC2)c1,inactive: 2.27%
2,COc1ccc(Cl)cc1C(=O)NCC1(N(C)C)CCCCC1,inactive: -2.58%
3,O=C(NCC1(N2CCCCC2)CCCCC1)c1cccc(Cl)c1,inactive: -3.96%
4,CN(C)C1(CNC(=O)c2ccc(Br)cc2)CCCCC1,inactive: -7.62%
5,COc1cc(C(=O)NCC2(N(C)C)CCCCC2)c([N+](=O)[O-])cc1OC,inactive: 1.36%
6,COc1ccc(Br)c(C(=O)NCC2(N3CCCCC3)CCCCC2)c1,inactive: -2.5%
7,CN(C)c1cccc(C(=O)NCC2(N(C)C)CCCCC2)c1,inactive: 0.6%
8,CC(C)Oc1ccc(C(=O)NCC2(N(C)C)CCCCC2)cc1,inactive: -0.59%
9,O=C(OC1CN2CCC1CC2)C(CO)(c1ccccc1)c1ccccc1 (centres undefined),inactive: -7.35%
10,CC(C)N1C(=O)CC2(CCN(CCOC(=O)C(O)(c3ccccc3)c3ccccc3)CC2)C1=O,inactive: 0.15%
11,CCN(CC)CC(C)C(C)OC(=O)C(O)(c1ccccc1)c1ccccc1 (centres undefined),inactive: -0.59%
12,COc1cc(SC)ccc1C(=O)NCC1(N(C)C)CCCCC1,inactive: -0.14%
13,Cc1ccc(C(=O)NCC2(N3CCCCC3)CCCCC2)cc1,inactive: -8.53%
14,O=C(NCC1(N2CCCCC2)CCCCC1)c1cc([N+](=O)[O-])ccc1Cl,inactive: 0.91%
15,CN1[C@@H]2CC[C@H]1CC(OC(=O)C(O)(c1ccccc1)c1ccccc1)C2 (some centres undefined),inactive: -3.82%
16,C=CCN1CCN(CCOC(=O)C(O)(c2ccccc2)c2ccccc2)CC1,inactive: -6.81%
17,O=C(NCC1(N2CCCCC2)CCCCC1)c1cc(F)c(F)cc1Cl,inactive: -2.75%
18,Cc1cc(C(=O)NCC2(N3CCCCC3)CCCCC2)ccc1[N+](=O)[O-],inactive: 1.12%
19,CCN1CCCC(OC(=O)C2(O)c3ccccc3C=Cc3ccccc32)C1 (centres undefined),inactive: 4.1%
20,O=C(NCC1(N2CCCCC2)CCCCC1)c1cccc(Br)c1,inactive: 0.34%
21,COc1ccc(C(=O)NCC2(N(C)C)CCCCC2)cc1,inactive: -4.59%
22,Cc1ccccc1C(=O)NCC1(N2CCCCC2)CCCCC1,inactive: -9.84%
23,CN(C)C1CCCC1OC(=O)C(O)(c1ccccc1)c1ccccc1 (centres undefined),inactive: 1.1%
24,CN(C)c1ccc(C(=O)NCC2(N(C)C)CCCCC2)cc1,inactive: -0.58%
